Experimental data: article PMC6698826

By UniProt entry, the sequences of proteins in these tests, tags left out. Residues count along the entry.
UniProt P55899, 24-297, chain 1 of 2: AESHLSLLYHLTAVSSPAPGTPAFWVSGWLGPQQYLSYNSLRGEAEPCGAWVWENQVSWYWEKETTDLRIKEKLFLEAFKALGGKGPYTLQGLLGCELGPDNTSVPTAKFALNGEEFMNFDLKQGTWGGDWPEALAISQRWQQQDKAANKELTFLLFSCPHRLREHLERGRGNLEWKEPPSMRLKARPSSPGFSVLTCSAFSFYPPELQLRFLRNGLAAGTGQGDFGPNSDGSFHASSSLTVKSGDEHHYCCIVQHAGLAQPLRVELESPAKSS

Molecular target: recombinant human FcRn (FcRn-His6) (UniProt P55899)
Assay: ELISA; competition: FcRn-His6 captured at 4 μg/mL on copper-coated plates; serial dilutions of unlabeled test antibody with a fixed 4 μg/mL of biotinylated huIgG1; pH 6.0 (0.05 M MES); 1 h at room temperature; streptavidin-HRP and TMB, absorbance at 450 nm

Substance: Ab1 huIgG1 sigma (IgG1σ) (antibody)
- fold reduction in binding affinity relative to the huIgG1 wild-type control: < 2 fold
